Earlier results in patent US10406236B2, “Single wall nanotube constructs and uses thereof” (Sloan-Kettering Institute for Cancer Research, priority 2005, dated 2019).

Test system: tumor expressing cells
Conditions: previous reports; cited from earlier work

RMFPNAPYL [WTI-126]
ability to kill tumor expressing cells or to produce a successful vaccine: limited ability
